Test results: ChEMBL document CHEMBL1149288, “Effects of substitution on the pyrrole N atom in derivatives of tetrahydronaltrindole, tetrahydrooxymorphindole, and a related 4,5-epoxyphenylpyrrolomorphinan” (J Med Chem, 2004)

Protein sequences, listed by entry. Tags and fused reporters are not part of them.
UniProt P35372, whole entry: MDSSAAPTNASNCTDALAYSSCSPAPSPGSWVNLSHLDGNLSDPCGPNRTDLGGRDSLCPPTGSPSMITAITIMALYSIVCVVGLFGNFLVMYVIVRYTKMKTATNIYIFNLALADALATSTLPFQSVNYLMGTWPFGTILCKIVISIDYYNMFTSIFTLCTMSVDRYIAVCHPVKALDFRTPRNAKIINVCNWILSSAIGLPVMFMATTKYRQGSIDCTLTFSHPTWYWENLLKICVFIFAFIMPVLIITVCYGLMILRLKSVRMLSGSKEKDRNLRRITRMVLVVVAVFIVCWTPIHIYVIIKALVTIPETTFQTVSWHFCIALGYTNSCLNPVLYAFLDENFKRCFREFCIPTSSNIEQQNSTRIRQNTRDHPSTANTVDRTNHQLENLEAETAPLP

Biological target: Mu-type opioid receptor (Homo sapiens, UniProt P35372)
Experiment: Displacement of [3H]DAMGO from human recombinant mu opioid receptor expressed in CHO cells
Type: cell-based
Outline: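 Radioligand displacement was run on human recombinant receptors expressed in CHO cells. The labels were [3H]DAMGO for MOR and [3H]U69593 for KOR. Values are the mean of two experiments, each in triplicate.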

CN1CC[C@]23c4c5ccc(O)c4O[C@H]2c2c(c4c(n2C)CCCC4)C[C@@]3(O)C1C5
Ki: 25.2 nM
